According to patent publication US20090275634A1 (priority 2006, published 2009):

What was measured:
TNBS-induced colitis = TNBS-induced colitis in mice, oral daily treatment; macroscopic disease score (Wallace criteria) and colon histology; type: in vivo, BALB/C mice
[1] = system: peritoneal macrophages derived from MyD88 KO mice; test: Number of MAC-1 positive peritoneal macrophages by FACS, MyD88 KO mice; type: cell-based, MyD88 KO mice (C57BL6 background); conditions: 72 hr
[2] = system: peritoneal macrophages from TLR9 KO mice; test: Number of total and MAC-1 positive peritoneal macrophages by FACS, TLR9 KO mice; type: cell-based; conditions: after treatment
[3] = system: peritoneal macrophages derived from MyD88 KO mice; test: MIP-2 secretion from peritoneal macrophages by ELISA, MyD88 KO mice; type: cell-based, MyD88 KO mice (C57BL6 background)
peritoneal macrophages [4] = test: Number of total and activated (MAC-1) peritoneal macrophages by FACS, wild type mice; type: cell-based, C57BL6 mice
peritoneal macrophages [5] = test: Cytokine/chemokine secretion from peritoneal macrophages by ELISA, wild type mice; type: cell-based, C57BL6 mice; conditions: for level of IL-6 in the supernatants of activated PMs / level of MIP-2 in the supernatants of activated PMs / level of TNF-α in the supernatants of activated PMs: LPS 0.1 μg/ml, CpG and CpG control 1 and 10 μg/ml (Example 4)

Substance	protection from colitis symptoms (disease score, FIG. 3) (TNBS-induced colitis; 100 μg/Kg oral daily beginning one day before colitis induction and for the subsequent seven days)	protection from colitis symptoms (disease score, FIG. 3) (TNBS-induced colitis; higher doses, 200 or 500 μg/Kg, oral daily beginning one day before colitis induction)	protection from colitis disease manifestation (disease score, FIG. 2) (TNBS-induced colitis; oral daily beginning one day before colitis induction and for the next seven days, low doses, 10 to 100 μg/Kg)	efficacy to alleviate colitis symptoms (disease score, FIG. 1) (TNBS-induced colitis; oral once daily, 25 or 50 μg/Kg, beginning one day or two days after colitis induction, sacrifice 7 days after TNBS)	number of MAC-1 positive cells [1]	number of total and MAC-1 positive cells [2]	effect on MIP-2 levels in the supernatants of PMs [3]	number of MAC-1 positive cells (peritoneal macrophages [4]; WT mice (C57BL6), Example 5, 72 hr)	number of total cells or MAC-1 positive cells (peritoneal macrophages [4]; naïve WT (C57BL6) mice, TLR9 experiment, 72 hrs, CpG 1 or 5 μg/ml)	level of IL-6 in the supernatants of activated PMs (peritoneal macrophages [5])	level of MIP-2 in the supernatants of activated PMs (peritoneal macrophages [5])	level of TNF-α in the supernatants of activated PMs (peritoneal macrophages [5])	levels of MIP-2 in the supernatants of PMs (peritoneal macrophages [5]; WT mice (C57BL6), Example 5, MyD88 experiment)	levels of MIP-2 in the supernatants of PM (peritoneal macrophages [5]; control naïve C57BL6 mice, TLR9 experiment, CpG 1, 5 μg/ml, 24 or 72 hours)	number of total and activated peritoneal macrophages (peritoneal macrophages [4]; 72 hr, LPS 0.1 μg/ml, CpG and non-CpG control 1 and 10 μg/ml (Example 4))
5′-CTGCCACGTTCTCCTGCA*C*C*-3′	protected moderately	less effective	protected the animals from the disease manifestation	prominent and comparable to that of Dexamethasone											
TCCATGACGTTCCTGACGTT					reduced significantly	reduced significantly	almost totally inhibited	increased	increased	strongly elevated	strongly elevated	strongly elevated	elevated	strongly elevated	
TCCATGAGCTTCCTGAGCTT										to a lower degree	to a lower degree	to a lower degree			increased
